Measured values from article PMC3105092 (PLoS ONE, 2011).
Values joined by “and” are separate entries in the source; they are usually repeats but may differ in a detail not shown here. Equal entries are not always repeated.

Tests used:
[1] = target: T1, AgCPR (Anopheles gambiae NADPH-cytochrome P450 oxidoreductase) (Anopheles gambiae, UniProt Q86QH5); assay: Isothermal titration calorimetry of nucleotide ligands with AgCPR; assay type: binding; conditions: ITC
T1 sequence (Q86QH5 64-679): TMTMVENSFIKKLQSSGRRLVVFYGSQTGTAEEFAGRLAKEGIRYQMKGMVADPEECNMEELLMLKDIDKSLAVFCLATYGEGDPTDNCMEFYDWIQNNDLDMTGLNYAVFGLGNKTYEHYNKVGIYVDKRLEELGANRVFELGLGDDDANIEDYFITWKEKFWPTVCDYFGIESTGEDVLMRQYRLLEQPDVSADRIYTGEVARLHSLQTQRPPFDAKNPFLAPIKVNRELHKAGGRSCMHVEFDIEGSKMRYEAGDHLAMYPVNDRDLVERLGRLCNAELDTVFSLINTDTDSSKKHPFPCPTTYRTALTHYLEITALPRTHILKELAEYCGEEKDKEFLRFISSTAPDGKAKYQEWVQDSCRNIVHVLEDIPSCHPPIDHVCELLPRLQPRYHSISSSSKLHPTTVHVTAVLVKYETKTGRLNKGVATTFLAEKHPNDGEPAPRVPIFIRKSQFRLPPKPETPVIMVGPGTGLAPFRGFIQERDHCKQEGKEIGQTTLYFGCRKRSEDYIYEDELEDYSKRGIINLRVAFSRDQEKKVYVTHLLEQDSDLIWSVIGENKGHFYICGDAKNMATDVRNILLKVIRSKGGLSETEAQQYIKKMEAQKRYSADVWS
Procedure: ITC experiments were performed using a ITC200 microcalorimeter (Microcal Inc/GE Healthcare). Protein samples were dialysed into 100 mM BES; pH 7.0 from 50% glycerol stocks stored at −20°C. The concentrations of all the proteins were determined by using Bradford assay. Samples were centrifuged at 13,000×g for 10 min and degassed at 23°C (2°C below the temperature at which the experiments were performed). All experiments were performed at 25°C. Typically, the protein concentration in the cell was 10–20 µM whilst ligand concentrations were in the range of 100–1000 µM. The data analysed using Origin 7.0 (Microcal) after subtracting the heats of dilution obtained from parallel experiments performed by injecting the nucleotide into the buffer. Thermodynamic parameters n (stoichiometry), K d (1/K a, the association constant), and Δ°H (enthalpy change) were obtained by nonlinear least-squares fitting of experimental data using the single-site binding model. The free energy of binding (ΔG°) and entropy change (ΔS°) were obtained using eqs 1 and 2.

hCPR [2] = target: T2, hCPR (Homo sapiens, UniProt P16435); assay: Inhibition of cytochrome c reduction by hCPR; assay type: biochemical; conditions: read-out: IC50 (±S.E.), inhibition of cytochrome c reduction; Human CPR, Phosphate Buffer (0.3 M potassium phosphate pH 7.7), 15 µM NADPH, 50 µM cytochrome c, 25°C
T2 sequence (P16435 43-677 limits assumed): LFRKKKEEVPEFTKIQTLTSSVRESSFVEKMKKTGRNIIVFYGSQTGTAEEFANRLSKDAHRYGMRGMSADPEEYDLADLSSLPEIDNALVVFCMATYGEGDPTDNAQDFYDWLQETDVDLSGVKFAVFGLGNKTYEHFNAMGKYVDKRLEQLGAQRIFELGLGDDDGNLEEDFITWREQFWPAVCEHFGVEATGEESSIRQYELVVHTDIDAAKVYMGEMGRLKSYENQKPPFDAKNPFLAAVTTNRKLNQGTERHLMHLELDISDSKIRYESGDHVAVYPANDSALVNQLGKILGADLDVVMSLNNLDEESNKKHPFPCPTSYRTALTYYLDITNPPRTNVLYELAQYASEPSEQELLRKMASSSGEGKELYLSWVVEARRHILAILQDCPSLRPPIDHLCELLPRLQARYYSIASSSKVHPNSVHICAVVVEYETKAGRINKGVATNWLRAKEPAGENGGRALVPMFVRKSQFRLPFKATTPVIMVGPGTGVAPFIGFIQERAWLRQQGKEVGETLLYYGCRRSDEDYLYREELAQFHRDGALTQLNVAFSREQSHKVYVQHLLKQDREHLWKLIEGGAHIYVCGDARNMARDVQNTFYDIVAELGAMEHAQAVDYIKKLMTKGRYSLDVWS

hCPR [3] = target: T3, hCPR (Homo sapiens, UniProt P16435); assay: Isothermal titration calorimetry of oxidised CPR with nucleotides in phosphate-free 100 mM BES, pH 7.0, 25 °C, single-site model; Kd = 1/Kobs.; assay type: binding
T3 construct: gene POR
T3 sequence (P16435 64-677): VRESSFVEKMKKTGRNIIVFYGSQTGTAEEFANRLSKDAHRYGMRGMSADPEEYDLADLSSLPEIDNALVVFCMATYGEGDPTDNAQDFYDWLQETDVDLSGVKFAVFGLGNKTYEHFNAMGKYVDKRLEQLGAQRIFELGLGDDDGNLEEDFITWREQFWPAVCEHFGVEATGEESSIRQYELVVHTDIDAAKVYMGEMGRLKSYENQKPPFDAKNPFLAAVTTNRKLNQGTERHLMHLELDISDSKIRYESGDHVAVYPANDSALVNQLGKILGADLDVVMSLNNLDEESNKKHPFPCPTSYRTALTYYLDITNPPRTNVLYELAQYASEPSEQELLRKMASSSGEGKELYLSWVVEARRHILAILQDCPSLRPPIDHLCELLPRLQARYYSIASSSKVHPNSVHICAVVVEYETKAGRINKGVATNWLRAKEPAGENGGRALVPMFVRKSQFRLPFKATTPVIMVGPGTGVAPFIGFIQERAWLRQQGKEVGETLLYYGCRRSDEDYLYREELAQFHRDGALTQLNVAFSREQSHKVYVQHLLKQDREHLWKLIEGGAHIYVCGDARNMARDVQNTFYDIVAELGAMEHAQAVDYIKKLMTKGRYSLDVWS

hCPR [4] = target: T3, hCPR; assay: Inhibition of cytochrome c (50 µM) reduction in phosphate-free 0.1 M Tris-HCl pH 7.7/0.1 M KCl, 25 °C, started with 12 µM (AgCPR) or 5 µM (hCPR) NADPH.; assay type: biochemical; conditions: read-out: IC50 µM (±S.E.), Tris Buffer; SEM
AgCPR [5] = target: T4, AgCPR (Anopheles gambiae, UniProt Q86QH5); assay: Inhibition of cytochrome c (50 µM) reduction in 0.3 M potassium phosphate pH 7.7, 25 °C, started with 30 µM NADPH (AgCPR).; assay type: biochemical; design: Δ63AgCPR: soluble, membrane anchor (amino acids 2-63) deleted; His-tag removed by thrombin; expressed in E. coli; conditions: read-out: IC50 µM (±S.E.), Phosphate Buffer; SEM
AgCPR [6] = target: T4, AgCPR; assay: Inhibition of cytochrome c (50 µM) reduction in phosphate-free 0.1 M Tris-HCl pH 7.7/0.1 M KCl, 25 °C, started with 12 µM (AgCPR) or 5 µM (hCPR) NADPH.; assay type: biochemical; design: Δ63AgCPR: soluble, membrane anchor (amino acids 2-63) deleted; His-tag removed by thrombin; expressed in E. coli; conditions: read-out: IC50 µM (±S.E.), Tris Buffer; SEM

Substance | binding (Kd) to AgCPR weaker than hCPR (fold) [1] [fold] | Kobs ([1]; 25°C, 100 mM BES pH 7.0) | TΔS ([1]; 25°C, 100 mM BES pH 7.0) [kcal/mol] | n (binding stoichiometry) ([1]; 25°C, 100 mM BES pH 7.0) | ΔG ([1]; 25°C, 100 mM BES pH 7.0) [kcal/mol] | ΔH ([1]; 25°C, 100 mM BES pH 7.0) | Kd ([1]; 25°C, 100 mM BES pH 7.0, Kd = 1/Kobs) [µM] | IC50 (hCPR [2]) [µM] | Kd (hCPR [3]) [µM] | IC50 (hCPR [4]) [µM] | IC50 (AgCPR [5]) [µM] | IC50 (AgCPR [6]) [µM]
NADP^+ | ~5 | 27.5±1.29 ×10^5 M^−1 | -3.24 | 1.00±0.04 | -8.73 | -11.97 kcal/mol and -11.97 ± 0.64 kcal/mol | 0.363 ± 0.017 | 105 ± 18 | – | – | – | –
nicotinamide adenine dinucleotide phosphate, oxidised form [NADP+] | – | – | – | – | – | – | – | – | 0.069 ± 0.012 | 29 ± 3 | 129 ± 35 | 29 ± 3
